# Experimental data from PubChem BioAssay AID588763 (NMMLSC, 2011).
# This is a selection; strong and weak results do not stand in their true shares. Potency and affinity values are given separately. The source made the active and inactive calls. The rule behind the calls is not given here.
# Target: Beta-2 adrenergic receptor (Homo sapiens) (UniProt P07550)
# Experiment: beta2AR agonists driving receptor internalization, dose response, cell-based, FAP fluorogen, flow cytometry, cherry pick 1 (AID 588763)
# Conditions: AM2.2-beta2AR cells, 90 min; at 33 µM (top of the series)
compound,measurement,value
CN(C)C(=O)c1cc([N+](=O)[O-])cc2c1-c1c(cc([N+](=O)[O-])cc1[N+](=O)[O-])C2=O,activation (receptor internalization),inactive: 92.3%
